# Yeast mating assay B: variants of the scFv Ab-14

Reference: Li et al. 2023, doi:10.1038/s41467-023-39022-2. File: FLAb, binding data.

Target peptide (SARS-CoV-2 spike, HR2 region): PDVDLGDISGINAS

Each scFv is VH, a 15-residue (Gly4Ser)3 linker, VL, as in the parent Ab-14, and differs from it in the CDRs of the heavy chain only.
VH: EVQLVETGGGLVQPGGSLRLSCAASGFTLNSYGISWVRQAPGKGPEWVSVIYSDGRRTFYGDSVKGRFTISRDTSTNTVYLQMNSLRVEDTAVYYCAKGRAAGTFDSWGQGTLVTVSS
VL: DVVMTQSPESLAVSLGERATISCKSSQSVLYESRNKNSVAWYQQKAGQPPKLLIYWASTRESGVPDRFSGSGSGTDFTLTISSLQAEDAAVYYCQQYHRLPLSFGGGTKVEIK

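The parent was found by panning a naive human phage display library on the peptide. The variants were designed computationally from a first round of random CDR variants and then made and measured. Group labels follow the data file (Ctrl: baseline library sampled from a position-specific scoring matrix, with some repeated check sequences; Rand: our label for a block that the file lists under HC and that is probably the random mutants of the ten best first-round binders; En: ensemble of fine-tuned language models; GP: Gaussian process model; GPLM: also part of the Gaussian process libraries; HC: hill climbing; Gen: genetic algorithm; Gibbs: Gibbs sampling; a sequence that several methods proposed may carry one label only). Affinity was read by AlphaSeq, a pooled yeast mating assay with surface-displayed partners. Pairs that bind mate more often; barcode pairs of the diploids are counted by sequencing. A regression on co-assayed BCL2-family reference pairs converts the normalised counts of each replicate to an apparent Kd. Mating was done six times.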

Changes read parent residue, position, new residue, counted from the first residue of the VH shown.
Variants here have at most six changes.
Values are apparent Kd, the geometric mean of the replicates that gave a signal; lower means stronger binding.
"nd" marks a missing value. The strain was present, yet no cells mated with the target were sequenced in any replicate, which points to weak or no binding.
In the paper, a design with two or fewer of six values counts as a poor binder.

Variant S31E A101R G103V S107Q [GPLM_HC] gave nd (0 of 6 replicates). For S31D F59M G61I R100N [GP_HC], the assay gave nd (0 of 6 replicates). With S31D T58M F59I G61I [GP_HC] the result was 19 nM (1 of 6 replicates). For F27E T28E N30Q A101L [Ctrl], the assay gave 220 nM (2 of 6 replicates). Variant V64F D106N [Ctrl] gave nd (0 of 6 replicates). For S31Q F59A G61S [GPLM_HC], the assay gave 2.2 nM (6 of 6 replicates). For G26W T28D G61A A101T [GPLM_Gibbs], the assay gave 1.5 nM (6 of 6 replicates). Variant T28E G61A S63D R100S A101T [GP_Gibbs] showed 620 pM (6 of 6 replicates). Variant T28E S31E R56K A101T [GP_Gen] showed 1.9 nM (6 of 6 replicates).

Variant T28D G55I T104W D106N [Rand] showed nd (0 of 6 replicates). For T28S G61I R100T [GPLM_Gen], the assay gave 4.1 nM (6 of 6 replicates). With R57D G61S A101S G103A D106P [Ctrl] the result was nd (0 of 6 replicates). Variant T28E S63R A101T [GP_Gen] showed 16 nM (6 of 6 replicates). With F27H N30D S35C F105A D106L [Rand] the result was nd (0 of 6 replicates). Variant T28A G61A R100Q A101L [GP_HC] gave 6.5 nM (2 of 6 replicates). With S31D G61I A101I [GP_HC] the result was 9.5 nM (5 of 6 replicates). For T28E G61Q S63D R100E [GP_Gen], the assay gave 17 nM (6 of 6 replicates). For S53A S107I [GPLM_Gen], the assay gave 1.1 nM (6 of 6 replicates).

For T28D T104M D106W [GPLM_HC], the assay gave 120 nM (1 of 6 replicates). For T28S S31E S53A R100Q [GPLM_Gen], the assay gave 310 pM (6 of 6 replicates). Variant F27K T28S G61T R100Q A101T [GP_Gibbs] gave nd (0 of 6 replicates). Variant S31E Y52M G61T A101F [Rand] gave nd (0 of 6 replicates). With S31Q G61A G103V S107T [GP_HC] the result was nd (0 of 6 replicates). Variant T28P K65C A102H [Ctrl] showed 51 nM (1 of 6 replicates). Variant S53A F105N D106E [En_HC] gave 370 nM (1 of 6 replicates). Variant T28N G61I S63D R100Q S107K [GP_Gibbs] gave 240 nM (6 of 6 replicates). Variant T28D R56M S63K A101T [GP_Gibbs] showed 2.3 nM (6 of 6 replicates).

With T28S S31E A101V [GPLM_Gen] the result was 540 pM (6 of 6 replicates). With T28S S63K R100E S107K [GP_Gen] the result was 1.5 nM (6 of 6 replicates). Variant G26L T28E S31E G61R A101T [GP_HC] gave 59 nM (4 of 6 replicates). For T28S S53A F105N [GPLM_HC], the assay gave 66 nM (1 of 6 replicates). Variant G61S S63D R100E [GPLM_Gen] showed 5.5 nM (6 of 6 replicates).

Extract of 5 entries:

{"changes": "T28E S31E R56K A101T", "group": "GP_Gen", "apparent Kd": "1.9 nM", "detected": "6 of 6"}
{"changes": "T28A G61A R100Q A101L", "group": "GP_HC", "apparent Kd": "6.5 nM", "detected": "2 of 6"}
{"changes": "T28E S63R A101T", "group": "GP_Gen", "apparent Kd": "16 nM", "detected": "6 of 6"}
{"changes": "S31D T58M F59I G61I", "group": "GP_HC", "apparent Kd": "19 nM", "detected": "1 of 6"}
{"changes": "G26L T28E S31E G61R A101T", "group": "GP_HC", "apparent Kd": "59 nM", "detected": "4 of 6"}

Nonspecific signal, from three strains lacking the peptide, appeared in 1% of pairings of all heavy chain designs, centred on 120 nM (5% of these signals below 7.0 nM); values are not corrected for it.
A sequence measured in both rounds can read differently, since the two assays cover different ranges.